Amino acid sequences for entries named in this document (tags omitted).
UniProt P30536, whole entry: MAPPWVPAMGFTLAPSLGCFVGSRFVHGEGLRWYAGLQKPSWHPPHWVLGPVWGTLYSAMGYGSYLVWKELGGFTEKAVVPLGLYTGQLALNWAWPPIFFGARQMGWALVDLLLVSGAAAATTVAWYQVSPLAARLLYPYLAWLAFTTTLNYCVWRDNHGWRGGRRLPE

According to PMC3685188 (Chemical Research in Toxicology, 2013):

Molecular target: hPBR (Homo sapiens, UniProt P30536)
Assay: MP_hPBR translocator protein
Assay type: binding

SMILES: CCC(C)N(C)C(=O)c1cc2ccccc2c(-c2ccccc2Cl)n1 (stereo not shown) [PK11195, reference compound]
- AC50 at the lowest concentration tested (LCT): MP_hPBR
